Laboratory results published in PubChem BioAssay AID590 (National Center for Advancing Translational Sciences (NCATS), 2007).
The list shows a part of the results, in another mix than the full data. Records with an inconclusive call do not appear. Active and inactive are the calls of the source. Cut-off read from the data, not from the text of the source: active = max dye-equivalent concentration above about 10 nM; inconclusive = mostly about 1.1 nM to 9.6 nM; inactive = weaker than that.

Test: qHTS Assay for Spectroscopic Profiling in A350 Spectral Region
Conditions: Compound autofluorescence, 340/450 nm, Alexa 350 dye-equivalents
Description: NIH Molecular Libraries Screening Centers Network [MLSCN]
NIH Chemical Genomics Center [NCGC]
Occasionally, the artifactual effect may originate from the compounds own spectral or other biophysical properties which generally tend to track its assay concentration. Pre-screening/profiling the library with respect to the compounds spectral properties should help one exclude false positives early on. While the most informative fluorescent profiling data set is obtained by performing a full excitation and emission scan of each well by using a monochromator-based plate reader, such an approach is practical only on a very limited scale as scanning each well requires long time. An alternative approach, applied here, is to perform plate reader scans using selected excitation and emission wavelength pairs to generate a multidimensional relational database that correlates compound concentration and the respective relative fluorescence intensity at a given wavelength set. A standard curve of Alexa 350 (A 350) present on each plate as six-point concentration series, was used to compute a normalized fluorescence response, termed dye-equivalent concentration, for each compound at each concentration.
NCGC Assay Protocol Summary:
100 mM Tris buffer, pH 8.0
The wells in columns 1 through 4 of a Kalypsys polypropylene 1536-well compound plate were filled with standard solutions of fluorophore corresponding to the spectral region of interest. Solutions of A 350 were placed in the following wells: I1, J1: 3 mM, I2, J2: 300 uM, I3, J3: 30 uM, I4, J4: zero (DMSO), K1, L1: 3 uM, K2, L2: […], K3, L3: 300 nM, K4, L4: zero (DMSO).
Six uL of buffer were dispensed to 1536-well Greiner black plates. Compounds and dye standards (23 nL) were transferred via Kalypsys PinTool. The plates were incubated for 15 min at room temperature, and then read on ViewLux (Perkin-Elmer) High-throughput CCD imager using 340 nm and 450 nm excitation and emission filter set.
Keywords: NIH Roadmap, MLSCN, MLI, MLSMR, qHTS, NCGC, A350, A-350, Fluorescent Profiling.

Compound	outcome
NC(=O)Nc1cc([As](=O)(O)O)cc(I)c1O	inactive
O=C(OC1CN2CCC1CC2)C12CC3CC(CC(C3)C1)C2 (configuration not stated)	inactive
O=[As]c1ccc(S(=O)(=O)NCCO)cc1 (configuration not stated)	inactive
[N-]=[N+]=NCC(N)=O	inactive
COc1ccccc1OP(C)(=O)Nc1ccc(C)cc1 (configuration not stated)	inactive
N1=C(c2nnc(-c3nn[nH]n3)nn2)NNN1	inactive
CP(=S)(Nn1cnnc1)Oc1ccccc1 (configuration not stated)	inactive
O=C(O)[C@@H](O)c1ccc([As](=O)(O)O)cc1	inactive
CP(=O)(NC(=O)Nc1ccccc1)Oc1ccccc1 (configuration not stated)	inactive
O=C(COc1ccccc1)OC1CN2CCC1CC2 (configuration not stated)	inactive
Clc1n[nH]nc1-c1nn[nH][15n]1	inactive
O=P1(Nc2ccccn2)COc2ccccc2OC1	inactive
CN(CCCl)Cc1cc(Cl)c(NC2=NCCN2)c(Cl)c1	inactive
CN(C(=O)Cc1ccc(Cl)c(Cl)c1)[C@@H]1CCCC[C@H]1N1CCCC1	inactive
Cc1nc2ccc3ccccc3c2s1.O=[N+]([O-])c1cc([N+](=O)[O-])c(O)c([N+](=O)[O-])c1	inactive
O=P1(Nc2ccc(Br)cn2)COc2ccccc2OC1	inactive
Cc1ccc(OCC(=O)OC2CN3CCC2CC3)cc1 (configuration not stated)	inactive
O=P1(Nc2ncccn2)COc2ccccc2OC1	inactive
O=[As](O)(O)c1ccc([As](=O)(O)O)cc1	inactive
O=P(Nc1nccs1)(c1ccccc1)c1nc2ccccc2s1 (configuration not stated)	inactive
NC(=O)Nc1ccc([As](=O)(O)O)cc1	inactive

Compound	outcome
NS(=O)(=O)Cc1ccc([As](=O)(O)O)cc1	inactive
CP(=O)(Nc1ccccc1F)Oc1ccccc1 (configuration not stated)	inactive
O=P1(Nc2nc3ccc(Cl)cc3s2)COc2ccccc2O1 (configuration not stated)	inactive
COC(=O)c1cc2c(s1)N=C(c1ccccc1)N(C)P2(=O)N1CCOCC1 (configuration not stated)	inactive
[N-]=[N+]=Nc1ccc([As](=O)(O)O)cc1	inactive
O=C(OC1CN2CCC1CC2)c1cccc(Cl)c1 (configuration not stated)	inactive
NNC(NN)NN.n1nc(-c2nn[nH]n2)n[nH]1	inactive
C[C@@H](O)COc1ccc([As](=O)(O)O)cc1N	inactive
Cc1ccccc1NP(C)(=O)Nc1ccccc1C	inactive
CCc1nc2c(n1)c1c(non1O)c1c2no[n+]1[O-]	inactive
COc1ccccc1OP(C)(=O)Nc1c(C)n(C)n(-c2ccccc2)c1=O (configuration not stated)	inactive
N#[O+].[C-]#N.[C-]#N.[C-]#N.[C-]#N.[C-]#N.[Fe+2].[Na+].[Na+]	inactive
CCN(CC)CC(O)COC(=O)C(O)(c1ccccc1)C1CCCCC1 (configuration not stated)	inactive
O=C(CO)Nc1ccc([As](=O)(O)O)cc1	inactive
CN(C(=O)Cc1ccccc1)[C@@H]1CC[C@@]2(CCCO2)C[C@H]1N1CCCC1	inactive
C/C1=C2N=C(/C=C3N=C(/C(C)=C4\[N-][C@@](C)([C@H]5N=C1[C@@](C)(CCC(=O)NC[C@H](C)OP(=O)([O-])O[C@@H]1[C@H](O)[C@H](n6cnc7cc(C)c(C)cc76)O[C@@H]1CO)[C@@H]5CC(N)=O)[C@](C)(CC(N)=O)[C@H]4CCC(N)=O)[C@@](C)(CC(N)=O)[C@@H]\3CCC(N)=O)C(C)(C)[C@@H]/2CCC(N)=O.[C-]#N.[Co+3]	inactive
COc1ccccc1OP(C)(=O)Nc1ccc(C)c(C)c1 (configuration not stated)	inactive
C(Cc1nn[nH]n1)c1nn[nH]n1	inactive
[N-]=[N+]=NCC(O)CN=[N+]=[N-] (configuration not stated)	inactive
O=[N+]([O-])c1ccc(C[As](=O)(O)O)cc1	inactive
NCC[C@@H](N)CSP(=O)(O)O	inactive
